Values quoted from earlier work as cited in patent US20060177438A1, “Methods of altering absorption of hydrophobic compounds” (New England Medical Center, priority 2005, published 2006).
Where two headings read alike, the source gives them in different places.

The chains behind the UniProt entries cited, without tags or fusion partners.
UniProt P32239, whole entry, species assumed: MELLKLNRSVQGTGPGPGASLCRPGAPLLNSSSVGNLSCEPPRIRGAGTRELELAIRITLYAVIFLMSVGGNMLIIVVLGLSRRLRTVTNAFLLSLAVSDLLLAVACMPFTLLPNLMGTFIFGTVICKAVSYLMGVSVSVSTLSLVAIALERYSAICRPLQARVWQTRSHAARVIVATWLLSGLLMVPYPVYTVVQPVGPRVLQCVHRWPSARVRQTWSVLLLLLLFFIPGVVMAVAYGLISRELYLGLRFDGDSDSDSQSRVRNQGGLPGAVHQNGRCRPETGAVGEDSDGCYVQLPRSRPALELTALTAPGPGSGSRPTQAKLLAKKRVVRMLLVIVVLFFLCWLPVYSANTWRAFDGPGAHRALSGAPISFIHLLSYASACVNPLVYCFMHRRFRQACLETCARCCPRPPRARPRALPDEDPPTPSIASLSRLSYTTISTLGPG
UniProt P32238, whole entry: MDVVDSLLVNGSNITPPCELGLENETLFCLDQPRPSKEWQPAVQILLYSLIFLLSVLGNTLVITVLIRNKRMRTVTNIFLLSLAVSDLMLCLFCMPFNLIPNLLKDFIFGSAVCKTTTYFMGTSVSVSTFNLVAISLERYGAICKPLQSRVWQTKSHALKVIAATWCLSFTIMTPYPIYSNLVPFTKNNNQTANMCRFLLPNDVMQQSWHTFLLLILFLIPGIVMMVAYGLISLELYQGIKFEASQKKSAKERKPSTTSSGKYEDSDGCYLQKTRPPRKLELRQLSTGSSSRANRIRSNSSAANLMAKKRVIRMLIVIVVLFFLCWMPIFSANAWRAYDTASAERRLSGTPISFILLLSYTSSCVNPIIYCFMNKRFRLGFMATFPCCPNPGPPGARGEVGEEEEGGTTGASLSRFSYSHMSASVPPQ

What was measured:
[1] = biological target: T1, CCK 2 receptor (CCK-2R) (Homo sapiens, UniProt P32239); conditions: brain membranes; cited from earlier work
[2] = biological target: T1, CCK 2 receptor (CCK-2R); conditions: parietal cells; cited from earlier work
[3] = biological target: CCK 1 receptor (Homo sapiens, UniProt P32238); conditions: cited from earlier work

## Cholecystokinin [CCK]
[1]
  higher affinity for CCK than for gastrin: 6-10 fold
[2]
  higher affinity for CCK than for gastrin: 1-2 fold
[3]
  greater affinity for CCK than for gastrin: > 100 times
